Experiment in all cases: SPR
(In SPR one partner is held on a chip, and binding of the other changes the refractive index at the surface.)

The target of test [1] is T1, soluble receptor activator of NF-κB ligand (UniProt O14788 140-317).
T1 sequence (looked up): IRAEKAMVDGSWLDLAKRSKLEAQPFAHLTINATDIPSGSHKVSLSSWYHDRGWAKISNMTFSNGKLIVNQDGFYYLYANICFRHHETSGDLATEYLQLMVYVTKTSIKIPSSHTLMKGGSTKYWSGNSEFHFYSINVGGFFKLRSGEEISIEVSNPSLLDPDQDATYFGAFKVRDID

For test [2], the target named is T2, bone morphogenetic protein-2 (UniProt P12643 283-396).
T2 sequence (looked up): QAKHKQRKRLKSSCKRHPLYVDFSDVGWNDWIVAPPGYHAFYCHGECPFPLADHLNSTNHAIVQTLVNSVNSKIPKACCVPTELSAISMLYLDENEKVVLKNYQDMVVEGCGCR

A further test has as its target T3, BMP-13 (UniProt Q6KF10 336-455).
T3 sequence (looked up): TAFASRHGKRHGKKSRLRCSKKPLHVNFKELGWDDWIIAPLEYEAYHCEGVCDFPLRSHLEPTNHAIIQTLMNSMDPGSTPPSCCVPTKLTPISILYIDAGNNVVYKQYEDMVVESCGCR

The next test addresses T4, BMP-14 (UniProt P43026 382-501).
T4 sequence (looked up): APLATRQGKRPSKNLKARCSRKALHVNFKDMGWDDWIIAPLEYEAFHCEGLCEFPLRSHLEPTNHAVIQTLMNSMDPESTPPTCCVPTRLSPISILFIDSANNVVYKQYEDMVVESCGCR

B1: Link_TSG6 (the Link module of human TSG-6) (domain or fragment, UniProt P98066 36-133, looked up)
chain: GVYHREARSGKYKLTYAEAKAVCEFEGGHLATYKQLEAARKIGFHVCAAGWMAKGRVGYPIVKPGPNCGFGKTGIIDYGIRLNRSERWDAYCYNPHAK
As usually defined, the Kd is the free concentration of one partner at which half of the binding sites on the other are occupied at equilibrium, for simple one-to-one binding. A higher Kd goes with a looser complex. On to B1, for which the Kd in test [1] amounted to 8250 nM; in test [2], 2430 nM; in the test with BMP-13 it was 2840 nM; with BMP-14, 1100 nM.
